The text below walks through data of US7572376B2, “Process for producing 1,3-propanediol” (Tate & Lyle Ingredients Americas, Inc., priority 2003, dated 2009).

Data set [1] can be described thus: solvent screen: PDO mixture with single solvents, distribution between solvent and aqueous phase. The data set is classed as physicochemical. As to conditions: 30° C.
Data set [2] in a line: water dissolving in solvent extractant TBP. The following applies: at certain temperatures used.
Data set [3] can be described thus: hydrophobic parameter log P of solvents and contaminants. As to conditions: log P=[solute]octanol/[solute]water; value marked estimated.
The mark [4] stands for this setting: conc. in solvent phase / conc. in aqueous phase, aqueous solution 46% w/v PDO, 3.5% glycerol, […] glucose.

For the compound `CCCCOP(=O)(OCCCC)OCCCC`, in data set [1] (setting [4]), the “Distribution Coefficient Glucose” value worked out at 0.016, the “Distribution Coefficient Glycerol” value was 0.077 and the “Distribution Coefficient PDO” value amounted to 0.203. Further, the Selectivity PDO/Glycerol in data set [1] (distribution coefficient of PDO divided by that of glycerol) came out at 2.65. In data set [2], the “water that can dissolve in TBP” value is “About 6%”. In data set [3], the hydrophobic parameter log P (estimated) was 2.
